Source: ChEMBL document CHEMBL1134008, “Cis- and trans-N-benzyl-octahydrobenzo[g]quinolines. Adrenergic and dopaminergic activity studies” (Bioorg Med Chem Lett, 2001)

Amino acid sequences for entries named in this document (tags omitted).
UniProt P61169, whole entry: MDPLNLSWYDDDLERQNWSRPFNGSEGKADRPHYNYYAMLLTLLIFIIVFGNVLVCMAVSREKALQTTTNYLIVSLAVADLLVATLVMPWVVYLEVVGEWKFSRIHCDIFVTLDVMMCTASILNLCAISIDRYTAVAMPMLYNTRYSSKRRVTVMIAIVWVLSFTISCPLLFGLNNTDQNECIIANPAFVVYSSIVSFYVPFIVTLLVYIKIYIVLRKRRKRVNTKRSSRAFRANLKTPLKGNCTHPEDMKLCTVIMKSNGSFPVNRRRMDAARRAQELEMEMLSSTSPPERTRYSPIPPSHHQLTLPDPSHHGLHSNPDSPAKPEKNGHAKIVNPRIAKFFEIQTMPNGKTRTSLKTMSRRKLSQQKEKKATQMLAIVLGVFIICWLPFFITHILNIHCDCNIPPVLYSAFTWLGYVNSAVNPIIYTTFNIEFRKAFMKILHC

Target: D(2) dopamine receptor (Rattus norvegicus, UniProt P61169)
Assay: Inhibition of binding of [3H]spiroperidol to Dopamine receptor D2 in rat striatal membranes
Format: cell membranes, Membrane

IC50: 220 nM
SMILES: CN1CCc2cccc3c2[C@H]1Cc1ccc(O)c(O)c1-3 [APOMORPHINE]
